## scFv variants of Ab-14 (light chain) against a SARS-CoV-2 spike peptide

All variants were tested on one target, the spike HR2 peptide PDVDLGDISGINAS (SARS-CoV-2).

Parent: Ab-14, a human scFv built as VH, a 15-residue (Gly4Ser)3 linker, VL. Only the CDRs of the light chain vary.
VH: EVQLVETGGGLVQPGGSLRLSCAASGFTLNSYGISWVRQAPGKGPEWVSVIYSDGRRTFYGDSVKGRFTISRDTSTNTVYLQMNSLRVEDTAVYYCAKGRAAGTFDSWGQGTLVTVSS
VL: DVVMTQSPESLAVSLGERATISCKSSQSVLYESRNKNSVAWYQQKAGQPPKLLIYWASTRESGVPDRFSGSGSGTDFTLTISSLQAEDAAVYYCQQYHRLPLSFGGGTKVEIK

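The parent was found by panning a naive human phage display library on the peptide. In library AAYL50, one, two or three CDR residues were substituted; doubles and triples were drawn at random. The assay is AlphaSeq: two haploid yeast populations carry antibody and antigen on their surface. After mating in shaken culture at 30 °C for 16 h, diploids were selected and their barcode pairs sequenced. A regression on co-assayed BCL2-family reference pairs converts the normalised counts of each replicate to an apparent Kd. The assay was run in three technical replicates.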

Each variant is given by its three light chain CDRs, as the data file delimits them; those of the parent are KSSQSVLYESRNKNSVA, WASTRES, QQYHRLPLS. Values are log10 of the apparent Kd in nM; lower means stronger binding. Averages over replicates are reported, and they cover detected replicates only. "nd" means that the variant was in the library but no mating with the target was seen in that replicate; the authors take this as a sign of poor binding, and no number exists. In this assay the parent's reference entry averaged 0.65; its copy inside this library read 1.68. Background: pairings of library AAYL50 with three empty control strains gave a value in 18% of cases (median 4.19, 5th percentile 2.99). Values in that range, when seen in few replicates, are hard to tell from nonspecific mating. For each scFv, signals with the empty controls are counted beside the result, with their mean in brackets.

CDR-L1 | CDR-L2 | CDR-L3 | log10 Kd, replicates | mean log10 Kd (nM) | control signals
KSSQSVLYESRNKNPVA | WASTRES | QQYRRLPLS | 2.82 2.32 2.71 | 2.62 | 1/9 (3.75)
KSSQSNLHESRNKNSVA | WASTRES | QYYHRLPLS | 2.46 2.23 2.58 | 2.43 | 3/9 (3.36)
KSSQSVLQESRSKNSVA | WASTRES | QQYHLLPLS | 1.19 1.32 1.25 | 1.25 | 0/9
KSSQSVLYESTLKQSVA | WASTRES | QQYHRLPLS | nd nd nd | nd | 1/9 (3.81)
KSSQHVLYESREKNSVA | WASTRES | QGYHRLPLS | 1.79 1.87 1.96 | 1.87 | 4/9 (4.82)
KSSQSVLYQSCNKNSVF | WASTRES | QQYHRLPLS | nd 3.70 5.32 | 4.51 | 5/9 (4.66)
KSSQSVLYESRLKNSVA | WAVTREF | QQYHRLPLS | 2.25 2.20 2.64 | 2.36 | 6/9 (4.77)
KSSQSVLYESRNKNSVA | WNSTRES | QQKHRLPLS | nd nd nd | nd | 0/9
KSSQSVSYESRNKNSVA | WASTRES | QGYWRLPLS | 3.26 2.98 2.90 | 3.05 | 1/9 (4.47)
KSSQSVCYHSRNKNSVA | WASTRES | QQYHRLPLH | 2.10 1.96 2.20 | 2.08 | 7/9 (4.49)
KSSQSVLYENRWKNSVA | WASTRES | QQYHRLPLS | 1.84 2.19 2.00 | 2.01 | 6/9 (4.46)
KSSQPVLYESRNKNSVA | WASTREQ | QQYARLPLS | 0.28 0.56 0.43 | 0.42 | 2/9 (4.70)
KSSQSVLYESRNKNSVA | WASTWEN | QQYHRRPLS | 5.78 nd 3.80 | 4.79 | 3/9 (4.43)
KSSPSVLAESRNKNSVA | WASTRES | QQYIRLPLS | 3.86 3.05 3.96 | 3.62 | 1/9 (3.26)
KSSQSVLYESRNKNSLA | WASTRES | QQYHHLMLS | nd nd nd | nd | 0/9
KKSQSVLYESRNKNSVA | QASTDES | QQYHRLPLS | nd nd nd | nd | 3/9 (3.86)
KSSLSVLYESRNKNSVA | WASTRES | QQYHRLPLS | 0.98 1.08 1.13 | 1.06 | 4/9 (5.35)
KSSQSVLYESRNSNPVA | WASTRES | QQYHRLNLS | nd 3.75 nd | 3.75 | 6/9 (4.37)
KSHQSVLQESRNKNSVA | WASCRES | QQYHRLPLS | 1.39 1.67 1.74 | 1.60 | 1/9 (4.52)
LSSQSVLYESREKNSVA | WASTRES | QQKHRLPLS | 2.02 1.89 1.86 | 1.92 | 1/9 (4.07)
CSSQSVLYESMNKNSVA | WASTRES | QQYHLLPLS | 1.80 1.86 2.13 | 1.93 | 2/9 (3.39)
KSSISVEYESRNKNSVA | WASTRIS | QQYHRLPLS | 0.70 0.85 0.84 | 0.80 | 3/9 (4.93)
KSSQSVLYESRNKNSIA | WWSTRES | QQYHRMPLS | 4.11 nd nd | 4.11 | 1/9 (4.50)
KSSQSVLYESRNHNSVA | WASTRES | QTYFRLPLS | 2.25 2.01 3.24 | 2.50 | 0/9
KSSQSVLYESRNKNSVA | WSSTRNS | QQYHRLPLS | 1.25 1.61 1.78 | 1.55 | 2/9 (4.57)
KSSQSVLYESSNKNSVA | WASTRES | QQGHRLPFS | 0.05 0.39 0.24 | 0.22 | 1/9 (3.67)
KSSQTVLYESTNKNSVA | WASTRES | QQYHRLGLS | 0.71 0.91 0.85 | 0.82 | 1/9 (5.16)
KSSQSVLYESRNKNAFA | WASCRES | QQYHRLPLS | nd nd 3.56 | 3.56 | 1/9 (4.24)
KLSQSVLYESRNKNSVA | WASTREK | QQYHRLPLS | -0.23 0.09 -0.14 | -0.09 | 3/9 (4.81)
KSSQSIHYESRNKNSVA | WASTRES | QQYHRLPLS | nd nd nd | nd | 2/9 (4.73)
KSMQSVLYESRNKNSVA | WASTRES | QFYHRLPLS | 1.91 2.44 2.12 | 2.16 | 0/9
KSSQSVLYESRNVPSVA | WVSTRES | QQYHRLPLS | nd nd nd | nd | 0/9
KSPPSVLYESRNKNSVA | WASTRES | QQYHRLVLS | nd nd nd | nd | 1/9 (3.24)
KNSQSVLYESRNKNSVA | WASTRES | YQYHRLNLS | nd 3.65 nd | 3.65 | 1/9 (4.69)
KSSQSVLYESRYKNSVA | WASQRES | QQYHRLPLS | 0.67 0.86 0.80 | 0.77 | 5/9 (5.28)
KSSQSWLYESRNKNSVA | WASTRES | WQYHRLGLS | nd nd nd | nd | 0/9
KSSQSVLYESRNSNSVA | WASTRES | QQYHRLPLS | -0.04 0.46 0.38 | 0.27 | 0/9
KLSQSVLYESRNKNSVK | WASTRES | QQLHRLPLS | nd nd 4.39 | 4.39 | 2/9 (4.12)
KSSQSVLYESANKNQVA | WASTRQS | QQYHRLPLS | 1.66 1.38 1.53 | 1.52 | 1/9 (4.04)
KSSQSVLYESRFKNSVV | WASTRES | QQYHRLPLS | nd nd nd | nd | 2/9 (3.98)
YSSQSVLYESRNKNSVA | WASTRQS | QWYHRLPLS | 5.79 nd nd | 5.79 | 4/9 (4.11)
KSSQSVLYEVRNKISVA | WASTRES | QQYHRLPLD | nd nd 4.83 | 4.83 | 3/9 (4.18)
KSSQSPLYLSRNTNSVA | WASTRES | QQYHRLPLS | 1.23 1.25 1.36 | 1.28 | 4/9 (4.21)
KSSQSVLYESRNKNSVA | WASTIES | HQYIRLPLS | 3.12 2.69 3.76 | 3.19 | 3/9 (4.44)
KSSQSVLYESRNKNSVA | WASTREH | QFYHRCPLS | nd nd nd | nd | 0/9
KPSQSVLYQSRNKFSVA | WASTRES | QQYHRLPLS | 4.01 3.05 3.31 | 3.46 | 5/9 (3.79)
KLSCSVLYESRNKNSVA | WASTRED | QQYHRLPLS | 0.13 0.39 0.23 | 0.25 | 3/9 (4.10)
KSSQSVLWESRNKNSVA | WASTIES | QRYHRLPLS | nd nd nd | nd | 2/9 (4.41)
KSSQSVLYESCNKNSVH | WCSTRES | QQYHRLPLS | nd nd nd | nd | 1/9 (5.06)

The measurements come from Engelhart et al. 2022 (doi:10.1038/s41597-022-01779-4) through the FLAb antibody collection.